{"source": "paper PMC11700703", "about": "(Nature cardiovascular research, 2024)", "system": "immune-captured F1FO-ATP synthase (solubilized rat heart mitochondria)", "assay": "cTnI binding to ATP synthase by ELISA", "conditions": "relative to unphosphorylated cTnI", "note": "Entries after “also recorded” stand apart in the source; their conditions may differ."}
{"substance": "cTnI-S42/44D: recombinant cTnI with phosphomimetic substitutions (serine to aspartate) at Ser42 and Ser44", "values": [{"measurement": "binding affinity to ATP synthase", "setting": "n=4", "value": "greater binding affinity; also recorded: higher binding affinity"}, {"measurement": "maximal binding to ATP synthase", "setting": "n=4 (h), n=6 (e)", "value": "greater maximal binding to ATP synthase than unphosphorylated cTnI"}]}
